The chains behind the UniProt entries cited, without tags or fusion partners.
UniProt P31652, whole entry: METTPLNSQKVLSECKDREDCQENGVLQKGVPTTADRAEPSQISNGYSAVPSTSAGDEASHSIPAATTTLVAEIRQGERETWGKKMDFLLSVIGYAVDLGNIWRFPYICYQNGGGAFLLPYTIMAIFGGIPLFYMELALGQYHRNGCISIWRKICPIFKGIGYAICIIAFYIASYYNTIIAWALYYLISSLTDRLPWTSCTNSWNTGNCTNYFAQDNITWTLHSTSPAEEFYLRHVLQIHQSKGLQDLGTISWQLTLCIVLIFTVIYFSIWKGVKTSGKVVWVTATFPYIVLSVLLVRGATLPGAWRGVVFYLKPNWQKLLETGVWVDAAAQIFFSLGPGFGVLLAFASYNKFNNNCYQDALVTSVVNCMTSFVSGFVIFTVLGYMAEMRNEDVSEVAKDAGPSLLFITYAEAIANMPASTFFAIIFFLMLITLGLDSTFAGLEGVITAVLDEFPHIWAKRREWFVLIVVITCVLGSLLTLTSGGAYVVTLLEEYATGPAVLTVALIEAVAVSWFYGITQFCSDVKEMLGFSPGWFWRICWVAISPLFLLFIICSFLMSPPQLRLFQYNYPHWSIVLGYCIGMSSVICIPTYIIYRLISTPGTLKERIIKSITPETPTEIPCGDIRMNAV

In ChEMBL document CHEMBL1146661, “The effect of 6-substituted-4',4"-difluorobenztropines on monoamine transporters and the muscarinic M1 receptor” (Bioorg Med Chem Lett, 2004):

Biological target: Sodium-dependent serotonin transporter (Rattus norvegicus, UniProt P31652)
Test: Displacement of [3H]-citalopram from serotonin transporter of rat brain membrane
Type: tissue-based

COC(=O)[C@@H]1C2CC[C@@H](C[C@@H]1OC(=O)c1ccccc1)N2C (single isomer, unassigned) [COCAINE]
pKi: 6.53

pKi: −log10 of the molar value.
